Test results as given in publication PMC3723849, “Evaluation of Phage Display Discovered Peptides as Ligands for Prostate-Specific Membrane Antigen (PSMA)” (PLoS ONE, 2013).

The chains behind the UniProt entries cited, without tags or fusion partners. Residues count along the entry.
UniProt Q04609, 44-750 limits assumed: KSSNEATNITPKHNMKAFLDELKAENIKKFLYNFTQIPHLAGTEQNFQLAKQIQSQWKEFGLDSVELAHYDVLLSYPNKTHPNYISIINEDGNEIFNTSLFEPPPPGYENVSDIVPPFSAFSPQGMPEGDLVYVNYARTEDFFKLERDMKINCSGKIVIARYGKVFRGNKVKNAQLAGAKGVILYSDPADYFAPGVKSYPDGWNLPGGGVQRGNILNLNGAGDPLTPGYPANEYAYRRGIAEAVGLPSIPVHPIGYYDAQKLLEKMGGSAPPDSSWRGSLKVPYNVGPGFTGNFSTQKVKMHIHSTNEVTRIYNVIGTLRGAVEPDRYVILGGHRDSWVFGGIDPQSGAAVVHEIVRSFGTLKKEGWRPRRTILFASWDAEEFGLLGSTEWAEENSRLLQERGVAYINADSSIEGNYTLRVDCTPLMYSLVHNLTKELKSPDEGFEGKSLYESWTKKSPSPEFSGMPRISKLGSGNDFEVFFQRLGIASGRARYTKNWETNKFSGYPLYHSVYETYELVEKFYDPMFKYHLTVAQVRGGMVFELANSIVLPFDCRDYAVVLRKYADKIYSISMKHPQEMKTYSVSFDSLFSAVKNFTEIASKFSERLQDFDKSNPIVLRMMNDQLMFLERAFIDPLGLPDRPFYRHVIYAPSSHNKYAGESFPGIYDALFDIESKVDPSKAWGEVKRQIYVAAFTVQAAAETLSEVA

Key:
[1] = tested on: LNCaP cells (PSMA positive); assay: Binding and internalization of 5-FAM labeled peptides by confocal microscopy; type: cell-based, human; conditions: 1 µM 5-FAM labeled peptide, 1 h, 37°C
Description: To determine whether the discovered peptides from the third round of screening bound PSMA-positive LnCAP cells and co-internalized with PSMA, the 5-FAM labeled peptides (DMSO∶TBS 80∶20, v/v) were diluted in culture medium (1 µM) and incubated with adherent LNCaP cells in 8-well chamber slides (1 h, 37°C). After rinsing with PBS, the cells were fixed (4% paraformaldehyde, 15 min) and permeabilized (0.01% Triton-X, 15 min). Non-specific binding sites were blocked (5% BSA, TBS, 1 h), and then the cells were incubated with 1∶1000 rabbit monoclonal anti-PSMA antibody (primary antibody, 3% BSA, TBS, 1 h). After rinsing (PBS), the cells were incubated with 1∶1000 TRITC labeled donkey anti-Rabbit IgG (secondary antibody, 3% BSA, TBS, 1 h). After rinsing with PBS, the cells were mounted (50% glycerol, PBS), covered with coverslips, and sealed with nail polish. Confocal laser scanning microscopy (Olympus FV1000) was used to analyze all samples. We also used z-stack images to determine the extracellular and intracellular locations of the 5-FAM labeled peptides.

PSMA-His6 = PSMA-His6 (Homo sapiens, UniProt Q04609); assay: PSMA enzyme assay (NAAG hydrolysis, Amplex Red glutamate detection); type: biochemical; parameters: A 15-mer library was screened against the soluble ectodomain of PSMA; purchased R&D Systems; conditions: Peptide 562 tetramer compared with peptide 562 monomer
Description: The glutamic acid/glutamate released from the natural substrate of PSMA, NAAG (N-acetylaspartylglutamate), was analyzed by the fluorescence-based Amplex Red Glutamic Acid/Glutamate Oxidase assay kit (Invitrogen) as previously described, [22], [32], [33]. […] Then NAAG (4 µM, 10 µL) was added to the peptide/PSMA-His6 mixture (37°C, 30 min). The enzymatic reaction was quenched (500 mM NaH2PO4/Na2HPO4, pH 7.4, 10 µL). […] Data was analyzed by non-linear regression with GraphPad Prism.

[2] = Aqueous solubility as observed when handling the peptides; type: physicochemical; conditions: qualitative, aqueous buffers
[3] = tested on: LNCaP cells (PSMA positive); assay: Immunofluorescence microscopy of phage clone binding; type: cell-based, human; conditions: 10^9 cfu; for Effect of soluble PSMA on phage clone binding to LNCaP cells: round 2 clones, 37°C 2 h, pre-incubation with PSMA-His6 100 nM, P<0.05; for Phage clone binding to LNCaP cells: round 3 clones, 37°C, 2 h
Description: (§1) The binding and cellular internalization study of phage clones and 5-FAM labeled peptides was performed as described previously. Briefly, LNCaP and PC-3 cells (1×10^4 cells/well) were grown on LabTek 8-chamber slides (Nunc Inc. Rochester, NY) overnight prior to the experiment. To determine the binding and internalization of phage clones, each clone (10^9 cfu) was incubated with LNCaP or PC-3 cells adherent in chamber slides (37°C, 2 h). After rinsing (PBS), the cells were fixed and permeabilized (4% paraformaldehyde, 0.01% Triton-X, 15 min) and blocked (5% BSA, TBS). To visualize the surface bound and internalized phage clones, the fixed and permeabilized cells were treated with either biotinylated rabbit anti-Fd bacteriophage antibody and Alexa 488 conjugated to streptavidin, or rabbit monoclonal anti-PSMA antibody (primary antibody) with TRITC labeled donkey anti-Rabbit IgG (secondary antibody). To inhibit the specific binding of the phage clones, the cells were pre-incubated with PSMA-His6 (100 nM, 2 hours, 37°C) before adding the phage clones. To quantify the fluorescence, the relative fluorescence unit (rfu) in the LNCap cells was measured with the software in Olympus FV1000 confocal scanning microscope.. Regions of interest were drawn in ten cells to determine the rfu values.

[4] = tested on: PC3 cells (PSMA negative); assay: as above; type: cell-based, human; conditions: round 3 clones, 10^9 cfu, 37°C, 2 h, same input as for LNCaP
Description: as §1

| Compound | Phage clone binding to PC3 cells [4] | Phage clone binding to LNCaP cells [3] | further results |
| --- | --- | --- | --- |
| 5FAM-562: peptide 562 conjugated with 5-carboxyl fluorescein on the N-terminal amine (SHSFSVGSGDHSPFT; 5-carboxyfluorescein (5-FAM) on the N-terminal amine) [Peptide 5FAM-562] |  |  | Binding and internalization in LNCaP cells ([1]; confocal microscopy): bound and internalized in LNCaP cells; Co-localization with PSMA ([1]; PSMA visualized with anti-PSMA-Mab): co-localized with PSMA in intracellular vesicles |
| CC(C)[C@H](NC(=O)[C@H](CO)NC(=O)[C@H](Cc1ccccc1)NC(=O)[C@H](CO)NC(=O)[C@H](Cc1c[nH]cn1)NC(=O)[C@@H](N)CO)C(=O)NCC(=O)N[C@@H](CO)C(=O)NCC(=O)N[C@@H](CC(=O)O)C(=O)N[C@@H](Cc1c[nH]cn1)C(=O)N[C@@H](CO)C(=O)N1CCC[C@H]1C(=O)N[C@@H](Cc1ccccc1)C(=O)N[C@H](C(=O)NCC(=O)NCC(=O)NCC(=O)N[C@@H](CO)C(=O)NCCOCCOCCOCCOCCOCCOCCC(=O)N[C@@H](CSC1CC(=O)N(CCC(=O)NCCCC[C@H](NC(=O)CCN2C(=O)CC(SC[C@H](NC(=O)CCOCCOCCOCCOCCOCCOCCNC(=O)[C@H](CO)NC(=O)CNC(=O)CNC(=O)CNC(=O)[C@@H](NC(=O)[C@H](Cc3ccccc3)NC(=O)[C@@H]3CCCN3C(=O)[C@H](CO)NC(=O)[C@H](Cc3c[nH]cn3)NC(=O)[C@H](CC(=O)O)NC(=O)CNC(=O)[C@H](CO)NC(=O)CNC(=O)[C@@H](NC(=O)[C@H](CO)NC(=O)[C@H](Cc3ccccc3)NC(=O)[C@H](CO)NC(=O)[C@H](Cc3c[nH]cn3)NC(=O)[C@@H](N)CO)C(C)C)[C@@H](C)O)C(N)=O)C2=O)C(=O)NCCCC[C@H](NC(=O)[C@H](CCCCNC(=O)CCN2C(=O)CC(SC[C@H](NC(=O)CCOCCOCCOCCOCCOCCOCCNC(=O)[C@H](CO)NC(=O)CNC(=O)CNC(=O)CNC(=O)[C@@H](NC(=O)[C@H](Cc3ccccc3)NC(=O)[C@@H]3CCCN3C(=O)[C@H](CO)NC(=O)[C@H](Cc3c[nH]cn3)NC(=O)[C@H](CC(=O)O)NC(=O)CNC(=O)[C@H](CO)NC(=O)CNC(=O)[C@@H](NC(=O)[C@H](CO)NC(=O)[C@H](Cc3ccccc3)NC(=O)[C@H](CO)NC(=O)[C@H](Cc3c[nH]cn3)NC(=O)[C@@H](N)CO)C(C)C)[C@@H](C)O)C(N)=O)C2=O)NC(=O)CCN2C(=O)CC(SC[C@H](NC(=O)CCOCCOCCOCCOCCOCCOCCNC(=O)[C@H](CO)NC(=O)CNC(=O)CNC(=O)CNC(=O)[C@@H](NC(=O)[C@H](Cc3ccccc3)NC(=O)[C@@H]3CCCN3C(=O)[C@H](CO)NC(=O)[C@H](Cc3c[nH]cn3)NC(=O)[C@H](CC(=O)O)NC(=O)CNC(=O)[C@H](CO)NC(=O)CNC(=O)[C@@H](NC(=O)[C@H](CO)NC(=O)[C@H](Cc3ccccc3)NC(=O)[C@H](CO)NC(=O)[C@H](Cc3c[nH]cn3)NC(=O)[C@@H](N)CO)C(C)C)[C@@H](C)O)C(N)=O)C2=O)C(=O)NCCC(=O)O)C1=O)C(N)=O)[C@@H](C)O (stereo partly shown) [(562)4] |  |  | Improvement of enzyme inhibition IC50 of tetramer over monomer (PSMA-His6): 2 fold |
| CC(=O)NCSC[C@H](NC(=O)[C@H](CO)NC(=O)[C@H](Cc1ccccc1)NC(=O)[C@H](Cc1ccccc1)NC(=O)[C@H](CO)NC(=O)[C@@H](N)CC(C)C)C(=O)N[C@@H](Cc1c[nH]c2ccccc12)C(=O)N[C@@H](CC(C)C)C(=O)N[C@@H](CCCNC(=N)N)C(=O)N[C@@H](CCCNC(=N)N)C(=O)N[C@@H](CO)C(=O)N[C@@H](Cc1ccccc1)C(=O)N[C@@H](CO)C(=O)N[C@@H](CC(C)C)C(=O)N[C@H](C(N)=O)[C@@H](C)O [Peptide 564] |  |  | Aqueous solubility [2]: limited water solubility |
| CC[C@H](C)[C@H](NC(=O)[C@H](CSCNC(C)=O)NC(=O)[C@H](CCCNC(=N)N)NC(=O)[C@H](CCSC)NC(=O)[C@H](CC(C)C)NC(=O)[C@H](Cc1ccccc1)NC(=O)[C@H](CC(C)C)NC(=O)[C@H](CC(C)C)NC(=O)[C@H](Cc1ccccc1)NC(=O)[C@H](CCSC)NC(=O)[C@H](CCCNC(=N)N)NC(=O)[C@H](C)N)C(=O)NCC(=O)N[C@@H](CSCNC(C)=O)C(=O)N[C@@H](Cc1ccc(O)cc1)C(N)=O [Peptide 565] |  |  | Aqueous solubility [2]: relatively insoluble in aqueous buffers |
| ARLSHRPSYLLVCA [Clone 1, phage clone from round 2 of panning displaying […]] |  |  | Effect of soluble PSMA on phage clone binding to LNCaP cells [3]: inhibited the binding |
| ARMFLLFLMRCIGCY [Clone C, phage clone from round 3 of panning] | not PC3 cells | bound specifically to LNCaP cells |  |
| EVPRLSLLAVFLCNG [Clone J, phage clone from round 3 of panning] | not PC3 cells | bound specifically to LNCaP cells |  |
| EVPRLSLLAVFLVAN [Clone L] | not PC3 cells | bound specifically to LNCaP cells |  |
| GTAVASRVYSLHSLM [Clone 2, phage clone from round 2 of panning displaying […]] |  |  | Effect of soluble PSMA on phage clone binding to LNCaP cells [3]: inhibited the binding |
| LSFFSCWLRRSFSLT [Clone G, phage clone from round 3 of panning] | not PC3 cells | bound specifically to LNCaP cells |  |
| SHSFSVGSG DHSPFT [Clone H] | not PC3 cells | bound specifically to LNCaP cells |  |
| SHSFSVGSGSGDHSP [Clone E] | not PC3 cells | bound specifically to LNCaP cells |  |
